Assay results reported in patent US6579696B1, “Polymyxin B conjugates” (priority 1992, dated 2003).

Experiments:
[1] = vancomycin after reaction with crosslinker, aqueous solution
[2] = Fluorescence polarization of PMB-FITC alone; settings: Table 47; Control (no endotoxin)

Substance	Soluble [1]	mP [2]	loss of anti-bacterial activity relative to PMB (E. coli HB101)
Bis (sulfosuccinimidyl) suberate:Vancomycin [Vanco:BS^3]	No	–	–
PMB-5-Thiocabamoyl-fluorescein [PMB-FITC]	–	58.5	2—4 fold
Sulfosuccinimidyl 4-(N-maleimidomethyl) cyclohexane-1-carbonate:Vancomycin [Vanco:sulfo-SMCC]	No	–	–
Sulfosuccinimidyl 6-[3-(2-pyridyldithio) propionamide] bexanoate:Vancomycin [Vanco:sulfo-LC SPDP]	No	–	–
Sulfosuccinimidyl (4-iodoacetyl) aminobenzoate:Vancomycin [Vanco:sulfo SIAB]	No	–	–
m-Maleimidobenzoyl-N-hydrosulfosuccinimide ester:Vancomycin [Vanco:sulfo-MBS]	No	–	–
